Experiments:
IGROV-1 tumours = settings: mouse, in vivo
[1] = system: IGROV-1, SKOV-3 and BT474 cell line tumours; settings: mouse, in vivo

## XL750-trastuzumab: Trastuzumab covalently labelled with XenoLight CF 750 NIRF dye
IGROV-1 tumours
  NIRF signal of excised heated right-hand tumours vs left-hand controls: substantially more NIRF signal compared to the left-hand controls
  accumulation in the area of the heated tumour: substantial increase in antibody accumulation
  fluorescence accumulation, ventral side: principally in the liver and the bladder
  retention of NIRF signal in the tumours: retained in the tumours for several weeks
  time for which signal intensity was maintained: at least 7 days
  uptake in left vs right tumour (NIRF brightness): the same in both tumours
IGROV-1 tumours; iv, 8 mg/kg
  time of maximum accumulation in both tumours: 24 to 48 h
[1]
  effect of level of Her-2 expression of the cancer cell lines: appeared not to affect the biodistribution of the antibody in tumours

Source: US20180178043A1, “FOCUSTED ULTRASOUND HYPERTHERMIA” (KING'S COLLEGE LONDON, priority 2015, published 2018)
